Data reported in PMC10535824, “Tryptophan Substitution in CJ-15,208 (cyclo[Phe-D-Pro-Phe-Trp]) Introduces δ-Opioid Receptor Antagonism, Preventing Antinociceptive Tolerance and Stress-Induced Reinstatement of Extinguished Cocaine-Conditioned Place Preference” (Pharmaceuticals, 2023).

System: C57BL/6J mice
Assay: conditioned place preference / aversion
Settings: two-day place conditioning, i.c.v.; morphine 30 nmol, U50,488 100 nmol, [Nal(2′)^4]CJ-15,208 30 or 100 nmol

## (±)-trans-3,4-dichloro-N-methyl-N-[2-(1-pyrrolidinyl)cyclohexyl]benzeneacetamide
  conditioned place preference or aversion: significant (p = 0.03) conditioned place avoidance
